Results taken from patent US20110009335A1, “Anticancer Treatments” (priority 2008, published 2011).

Test system: LOX-IMVI human melanoma xenograft
Assay: Aplidine with sorafenib, LOX-IMVI xenograft in athymic nude mice (Example 7)
Type: in vivo
Conditions: G4: sorafenib 30 mg/kg/day PO
Text: Female athymic nude mice (Harlan Sprague Dawley, Madison, Wis.) were utilized for all experiments. Mice were implanted with a tumor fragment when mice were 6-8 weeks of age. Animals were housed in ventilated rack caging with food and water ad libitum. The mice were acclimated for at least 5 days prior to tumor implantation.
The tumor model used in this study was LOX-IMVI, which is a human melanoma cell line obtained from the Department of Developmental Therapeutics, National Cancer Institute (NCI). Animals were implanted subcutaneously (SC) on the right flank, using a 13 gauge trocar, with 2 mm^3 of tissue tumor fragments of LOX-IMVI, from an in vivo transplantable line passage 1, using sterile Earle's Balanced Salt solution as a wetting agent.
Tumor measurements were determined as disclosed in Example 1. […]
The treatment of LOX-IMVI-tumor-bearing mice was initiated on DPI (Day Post Implantation) 11. Body weights were recorded on treatment days and when tumor sizes were measured. […]
Tumor size measurements were recorded twice weekly from the treatment initiation until the termination of the study.
Mean, standard deviation and standard error of the mean were determined for tumor volume for all animal groups at all assessments. […]

In the case of `CNC(=O)c1cc(Oc2ccc(NC(=O)Nc3ccc(Cl)c(C(F)(F)F)c3)cc2)ccn1` [sorafenib], the “% T/C on day 11” value is reported as 102.1%.
